This is a selection; strong and weak results do not stand in their true shares. Results filed as inconclusive are left out. The source made the active and inactive calls. Calls come from the whole dose curve; as a rule, active = well fitted inhibition curve with a large enough effect; inconclusive = small, poorly fitted or top-dose-only effect; inactive = no such curve, though single readings can be large or run the other way.
biological target: Chromobox protein homolog 1 (Homo sapiens) (UniProt P83916); assay: HTS for Inhibitors of HP1-beta Chromodomain Interactions with Methylated Histone Tails; details: AlphaScreen HP1-beta / biotin-H3K9me3 peptide binding; at 114 µM (top of the series); note: nearly all actives have a fitted effect of over 70% in size

By UniProt entry, the sequences of proteins in these tests, tags left out.
UniProt P83916, whole entry: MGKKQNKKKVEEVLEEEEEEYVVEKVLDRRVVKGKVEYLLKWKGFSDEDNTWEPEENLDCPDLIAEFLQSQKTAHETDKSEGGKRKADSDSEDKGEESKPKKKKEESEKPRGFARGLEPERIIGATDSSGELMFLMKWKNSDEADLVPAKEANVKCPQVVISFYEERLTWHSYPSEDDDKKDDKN

`CCC(=O)N(c1ccccc1)C1(COC)CCN(CCn2nnn(CC)c2=O)CC1` was tested. Which activity change, negative = inhibition did it give?
The activity change, negative = inhibition was inactive: 28.9%.

With `CCC(=O)N(c1ccccc1)C1(COC)CCN(CCc2cccs2)CC1` as the molecule, how does the activity change, negative = inhibition read?
The activity change, negative = inhibition was inactive: 7.29%.
